Data from patent US5280119A, “Heterocyclic amine-boranes, and method of inhibiting DNA topoisomerase activity and/or combatting inflammation, hyperlipidemia, and/or neoplasia using amine-borane compounds” (dated 1994).
≈ marks a conversion by molar mass, not a printed value.

By UniProt entry, the sequences of proteins in these tests, tags left out. Where a name states a change or a piece, a line headed by the entry shows the natural chain unless it says otherwise.
UniProt Q9QXG4, whole entry, looked up: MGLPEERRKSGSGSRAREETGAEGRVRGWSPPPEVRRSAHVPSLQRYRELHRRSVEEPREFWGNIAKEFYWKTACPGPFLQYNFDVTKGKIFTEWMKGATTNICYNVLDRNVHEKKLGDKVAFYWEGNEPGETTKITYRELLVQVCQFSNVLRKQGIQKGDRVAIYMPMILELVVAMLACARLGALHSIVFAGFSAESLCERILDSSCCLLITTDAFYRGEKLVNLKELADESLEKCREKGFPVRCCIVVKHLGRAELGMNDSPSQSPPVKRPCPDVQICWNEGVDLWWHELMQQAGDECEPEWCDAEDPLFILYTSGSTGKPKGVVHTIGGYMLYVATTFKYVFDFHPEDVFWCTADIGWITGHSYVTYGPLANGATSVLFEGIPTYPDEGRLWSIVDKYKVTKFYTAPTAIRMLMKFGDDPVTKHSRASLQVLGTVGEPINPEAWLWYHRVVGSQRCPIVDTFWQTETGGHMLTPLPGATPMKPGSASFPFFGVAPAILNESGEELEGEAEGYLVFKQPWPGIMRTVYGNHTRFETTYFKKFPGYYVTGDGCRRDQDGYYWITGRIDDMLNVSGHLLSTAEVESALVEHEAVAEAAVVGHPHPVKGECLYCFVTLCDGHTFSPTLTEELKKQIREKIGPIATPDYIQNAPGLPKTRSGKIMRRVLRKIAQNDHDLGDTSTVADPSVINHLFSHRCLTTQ
UniProt Q64505: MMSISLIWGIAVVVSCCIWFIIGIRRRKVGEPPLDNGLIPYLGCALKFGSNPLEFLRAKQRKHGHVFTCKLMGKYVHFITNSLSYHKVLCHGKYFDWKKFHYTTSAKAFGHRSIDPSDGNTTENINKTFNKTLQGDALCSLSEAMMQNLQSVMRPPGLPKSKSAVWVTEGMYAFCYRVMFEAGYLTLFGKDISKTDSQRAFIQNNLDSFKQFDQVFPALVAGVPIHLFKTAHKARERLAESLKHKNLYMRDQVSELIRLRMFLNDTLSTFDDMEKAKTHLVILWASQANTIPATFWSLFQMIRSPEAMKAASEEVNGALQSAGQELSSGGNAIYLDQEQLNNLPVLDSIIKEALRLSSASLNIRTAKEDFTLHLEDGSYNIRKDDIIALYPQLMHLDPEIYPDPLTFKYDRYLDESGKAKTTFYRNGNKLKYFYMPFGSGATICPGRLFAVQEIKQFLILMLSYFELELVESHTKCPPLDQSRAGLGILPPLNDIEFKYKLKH
UniProt Q91V92: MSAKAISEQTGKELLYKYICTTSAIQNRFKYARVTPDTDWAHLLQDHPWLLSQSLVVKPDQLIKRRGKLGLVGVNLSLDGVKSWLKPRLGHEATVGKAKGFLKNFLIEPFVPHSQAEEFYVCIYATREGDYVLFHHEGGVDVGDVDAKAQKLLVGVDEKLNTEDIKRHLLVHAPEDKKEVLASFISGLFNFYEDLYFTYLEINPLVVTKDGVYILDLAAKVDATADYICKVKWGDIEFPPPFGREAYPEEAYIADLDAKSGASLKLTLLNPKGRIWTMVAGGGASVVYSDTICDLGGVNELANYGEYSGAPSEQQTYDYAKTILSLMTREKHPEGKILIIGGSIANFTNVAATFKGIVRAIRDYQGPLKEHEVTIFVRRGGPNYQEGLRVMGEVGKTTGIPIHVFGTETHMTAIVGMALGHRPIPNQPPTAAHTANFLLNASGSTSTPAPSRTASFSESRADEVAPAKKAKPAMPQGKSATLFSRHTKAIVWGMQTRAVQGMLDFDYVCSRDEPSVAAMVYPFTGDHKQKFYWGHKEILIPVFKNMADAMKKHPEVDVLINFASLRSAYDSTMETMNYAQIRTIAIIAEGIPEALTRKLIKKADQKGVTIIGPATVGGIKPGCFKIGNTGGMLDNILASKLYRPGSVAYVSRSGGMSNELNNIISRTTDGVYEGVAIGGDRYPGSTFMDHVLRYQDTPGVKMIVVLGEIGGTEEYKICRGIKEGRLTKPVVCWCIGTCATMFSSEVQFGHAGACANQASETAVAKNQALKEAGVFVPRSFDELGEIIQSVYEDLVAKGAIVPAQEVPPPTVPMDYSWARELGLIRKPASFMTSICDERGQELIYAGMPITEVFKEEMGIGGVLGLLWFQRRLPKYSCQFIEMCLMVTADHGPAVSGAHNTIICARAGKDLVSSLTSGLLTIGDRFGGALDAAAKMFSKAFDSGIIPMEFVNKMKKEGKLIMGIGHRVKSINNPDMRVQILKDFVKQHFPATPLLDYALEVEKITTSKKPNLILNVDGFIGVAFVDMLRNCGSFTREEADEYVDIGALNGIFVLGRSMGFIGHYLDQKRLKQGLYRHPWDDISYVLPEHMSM
UniProt O88908: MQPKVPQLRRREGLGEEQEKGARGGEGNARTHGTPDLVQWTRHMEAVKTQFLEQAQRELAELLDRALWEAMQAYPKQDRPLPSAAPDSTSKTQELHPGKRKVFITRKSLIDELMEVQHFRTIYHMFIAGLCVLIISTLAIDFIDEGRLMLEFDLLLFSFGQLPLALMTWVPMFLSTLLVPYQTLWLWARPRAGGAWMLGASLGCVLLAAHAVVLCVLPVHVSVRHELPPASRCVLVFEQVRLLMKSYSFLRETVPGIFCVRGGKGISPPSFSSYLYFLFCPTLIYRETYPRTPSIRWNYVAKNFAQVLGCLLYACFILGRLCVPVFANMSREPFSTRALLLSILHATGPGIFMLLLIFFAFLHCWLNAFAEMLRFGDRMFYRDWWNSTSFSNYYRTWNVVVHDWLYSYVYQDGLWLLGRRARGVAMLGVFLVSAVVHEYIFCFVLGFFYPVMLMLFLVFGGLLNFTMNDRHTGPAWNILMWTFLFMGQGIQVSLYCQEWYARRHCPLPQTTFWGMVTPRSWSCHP

Columns and labels:
[1] = system: KB epidermoid nasopharynx; test: Cytotoxicity, KB epidermoid nasopharynx; conditions: kb cells
HMG CoA Reductase = test: HMG CoA reductase (cholesterol synthesis), liver in vitro
[2] = system: HeLa-S^3 suspended cervical carcinoma; test: Cytotoxicity, HeLa-S3; conditions: hela-s3 cells
[3] = system: Neutral Cholesterol Ester Hydrolase; test: Neutral cholesterol ester hydrolase, liver in vitro
[4] = Hypolipidemic screen in normal mice; conditions: CF1 male mice, IP
[5] = system: human Tmolt3 acute lymphoblastic T cell leukemia; test: Cytotoxicity, Tmolt3; conditions: trypan blue exclusion
Acetyl CoA Synthetase = Acetyl CoA Synthetase (Mus musculus, UniProt Q9QXG4); test: Acetyl CoA synthetase, liver homogenate in vitro; conditions: 30 min
[6] = system: SN Glycerol 3 Phosphate Acyl Transferase; test: sn-Glycerol-3-phosphate acyl transferase, liver in vitro
[7] = biological target: Cholesterol 7α Hydroxylase (Mus musculus, UniProt Q64505); test: Cholesterol-7α-hydroxylase, liver in vitro
glioma EH 118 MG = test: Cytotoxicity, glioma EH 118 MG; conditions: eh 118 mg cells
[8] = biological target: ATP Dependent Citrate Lyase (Mus musculus, UniProt Q91V92); test: ATP dependent citrate lyase, liver homogenate in vitro; conditions: 30 min
[9] = Liver, small intestine, aorta, bile and fecal lipid extraction; conditions: rats, 8 mg/kg/day orally 14 days
[10] = system: colorectal adenocarcinoma SW480; test: Cytotoxicity, colorectal adenocarcinoma SW480; conditions: sw480 cells
[11] = Serum lipoprotein fractions; conditions: rats, 8 mg/kg/day orally 14 days, N = 6
[12] = system: lung bronchogenic MB-9812; test: Cytotoxicity, lung bronchogenic MB-9812; conditions: concentration which inhibits 50% of cell growth
[13] = system: P388 lymphocytic leukemia; test: Cytotoxicity, P388 lymphocytic leukemia
[14] = system: Phosphatidylate Phosphohydrolase; test: Phosphatidylate phosphohydrolase, liver in vitro; conditions: 30 min
[15] = system: Mitochondrail Citrate Lyase; test: Mitochondrial citrate exchange, liver homogenate in vitro; conditions: N = 6, 10 min
[16] = biological target: Acyl CoA Cholesterol Acyl Transferase (Mus musculus, UniProt O88908); test: Acyl CoA cholesterol acyl transferase, liver in vitro
Acetyl CoA Carboxylase = Acetyl CoA Carboxylase (Mus musculus, UniProt Q5SWU9); test: Acetyl CoA carboxylase, liver in vitro
osteosarcoma TE418 = test: Cytotoxicity, osteosarcoma TE418; conditions: te418 cells
[17] = Hypolipidemic screen in normal rats (serum lipids, body weight, food)
[18] = Anti-inflammatory activity, carrageenan paw; conditions: CF1 Mice, 20 mg/kg × 2 (table head; b1373: 8 mg/kg i.p. 3 hours and 30 minutes before carrageenan)
[19] = system: murine L1210 lymphoid leukemia; test: Cytotoxicity, L1210 lymphoid leukemia; conditions: trypan blue exclusion
[20] = system: P388 lymphocytic leukemia; test: in vivo P388 lymphocytic screen; conditions: 20 mg/kg/day I.P.
[21] = Sprague Dawley male rats, 8 mg/kd/day orally (clofibrate 150 mg/kg/day)

For `COC(=O)[BH2-][NH+]1CCC(c2ccccc2)CC1` (centres unmarked), the “ED50 Cytotoxicity, Human KB” value [1] was 5.62 µg/mL (≈ 24.1 µM), the “HMG CoA Reductase” value (HMG CoA Reductase; 25 μM) was 77 ± 4% of Control and the “HMG CoA Reductase” value (HMG CoA Reductase; 50 μM) was 70 ± 5% of Control. For the same molecule, the “HMG CoA Reductase” value (HMG CoA Reductase; 100 μM) was 67 ± 4% of Control, the “ED50 Cytotoxicity, Human HeLa-S^3” value [2] was 2.92 µg/mL (≈ 12.5 µM) and the “Neutral Cholesterol Ester Hydrolase” value ([3]; 25 μM) was 153 ± 8% of Control. The “Neutral Cholesterol Ester Hydrolase” value ([3]; 50 μM) was 296 ± 12% of Control, the “Neutral Cholesterol Ester Hydrolase” value ([3]; 100 μM) was 338 ± 10% of Control and the “Serum Cholesterol Day 9” value ([4]; 8 Mg/kg/day, N = 6) was 75 ± 4% of Control. The “Serum Cholesterol Day 16” value ([4]; 8 Mg/kg/day, N = 6) was 59 ± 4% of Control, the “Serum Triglycerides Day 16” value ([4]; 8 Mg/kg/day, N = 6) was 73 ± 5% of Control and the “serum cholesterol level lowered” value ([4]; doses of Table 6) was 41%. For the same molecule, the “ED50 Cytotoxicity, Human lymphocyte Tmolt3” value [5] was 2.34 µg/mL (≈ 10 µM), the “Acetyl CoA Synthetase” value (Acetyl CoA Synthetase; 25 μM) was 80 ± 5% of Control and the “Acetyl CoA Synthetase” value (Acetyl CoA Synthetase; 50 μM) was 73 ± 5% of Control. The “Acetyl CoA Synthetase” value (Acetyl CoA Synthetase; 100 μM) was 47 ± 5% of Control, the “SN Glycerol 3 Phosphate Acyl Transferase” value ([6]; 25 μM) was 103 ± 7% of Control and the “SN Glycerol 3 Phosphate Acyl Transferase” value ([6]; 50 μM) was 105 ± 6% of Control. For the same molecule, the “SN Glycerol 3 Phosphate Acyl Transferase” value ([6]; 100 μM) was 111 ± 6% of Control, the “Cholesterol 7α Hydroxylase” value ([7]; 25 μM) was 102 ± 5% of Control and the “Cholesterol 7α Hydroxylase” value ([7]; 50 μM) was 117 ± 9% of Control. The “Cholesterol 7α Hydroxylase” value ([7]; 100 μM) was 121 ± 6% of Control, the “ED50 Cytotoxicity, Human Glioma” value (glioma EH 118 MG) was 2.36 µg/mL (≈ 10.1 µM) and the “ATP Dependent Citrate Lyase” value ([8]; 25 μM) was 59 ± 4% of Control. The “ATP Dependent Citrate Lyase” value ([8]; 50 μM) was 26 ± 3% of Control, the “ATP Dependent Citrate Lyase” value ([8]; 100 μM) was 14 ± 3% of Control and the “Aorta Cholesterol” value [9] was 84 ± 6% of Control. For the same molecule, the “Aorta Neutral Lipids” value [9] was 153 ± 5% of Control, the “Aorta Phosphate Lipids” value [9] was 75 ± 5% of Control and the “Aorta Protein” value [9] was 105 ± 6% of Control. For the same molecule, the “Aorta Triglyceride” value [9] was 81 ± 6% of Control, the “Aorta mg Lipid Extracted” value [9] was 115 ± 7% of Control and the “Bile Cholesterol” value [9] was 201 ± 12% of Control. The “Bile Neutral Lipids” value [9] was 118 ± 6% of Control, the “Bile Phosphate Lipids” value [9] was 104 ± 9% of Control and the “Bile Protein” value [9] was 125 ± 6% of Control. For the same molecule, the “Bile Triglyceride” value [9] was 106 ± 5% of Control, the “Liver Cholesterol” value [9] was 97 ± 7% of Control and the “Liver Neutral Lipids” value [9] was 132 ± 7% of Control. The “Liver Phosphate Lipids” value [9] was 102 ± 6% of Control, the “Liver Protein” value [9] was 124 ± 5% of Control and the “Liver Triglyceride” value [9] was 22 ± 3% of Control. For the same molecule, the “Liver mg Lipid Extracted” value [9] was 103 ± 5% of Control, the “Small Intestine Cholesterol” value [9] was 93 ± 7% of Control and the “Small Intestine Neutral Lipids” value [9] was 102 ± 6% of Control. For the same molecule, the “Small Intestine Phosphate Lipids” value [9] was 20 ± 2% of Control, the “Small Intestine Protein” value [9] was 119 ± 5% of Control and the “Small Intestine Triglyceride” value [9] was 165 ± 6% of Control. The “Small Intestine mg Lipid Extracted” value [9] was 108 ± 7% of Control, the “Feces Cholesterol” value ([9]; 24 h collection) was 239 ± 12% of Control and the “Feces Neutral Lipids” value ([9]; 24 h collection) was 97 ± 8% of Control. For the same molecule, the “Feces Phosphate Lipids” value ([9]; 24 h collection) was 255 ± 6% of Control, the “Feces Protein” value ([9]; 24 h collection) was 205 ± 9% of Control and the “Feces Triglyceride” value ([9]; 24 h collection) was 85 ± 6% of Control. For the same molecule, the “Feces mg Lipid Extracted” value ([9]; 24 h collection) was 296 ± 10% of Control, the “ED50 Cytotoxicity, Human Colon SW480” value [10] was 7.41 µg/mL (≈ 31.8 µM) and the “Chylomicron Cholesterol” value [11] was 98 ± 7% of Control. The “Chylomicron Neutral Lipids” value [11] was 75 ± 4% of Control, the “Chylomicron Phospholipids” value [11] was 22 ± 7% of Control and the “Chylomicron Protein” value [11] was 103 ± 5% of Control. The “Chylomicron Triglyceride” value [11] was 116 ± 8% of Control, the “HDL Cholesterol” value [11] was 209 ± 10% of Control and the “HDL Neutral Lipids” value [11] was 97 ± 6% of Control. For the same molecule, the “HDL Phospholipids” value [11] was 58 ± 5% of Control, the “HDL Protein” value [11] was 89 ± 7% of Control and the “HDL Triglyceride” value [11] was 104 ± 5% of Control. The “LDL Cholesterol” value [11] was 28 ± 3% of Control, the “LDL Neutral Lipids” value [11] was 62 ± 5% of Control and the “LDL Phospholipids” value [11] was 124 ± 6% of Control. For the same molecule, the “LDL Protein” value [11] was 81 ± 6% of Control, the “LDL Triglyceride” value [11] was 48 ± 5% of Control and the “VLDL Cholesterol” value [11] was 39 ± 4% of Control. The “VLDL Neutral Lipids” value [11] was 92 ± 8% of Control, the “VLDL Phospholipids” value [11] was 56 ± 6% of Control and the “VLDL Protein” value [11] was 98 ± 7% of Control. The “VLDL Triglyceride” value [11] was 93 ± 7% of Control, the “ED50 Cytotoxicity, Human Lung Bronchogenic” value [12] was 4.75 µg/mL (≈ 20.4 µM) and the “ED50 Cytotoxicity, P388 Lymphocytic Leukemia” value ([13]; p388 cells) was 4.00 µg/mL (≈ 17.2 µM). For the same molecule, the “activity in the murine P388 lymphocytic screen (in words)” value ([13]; text summary of Table 4) was “marginally active”, the “Phosphatidylate Phosphohydrolase” value ([14]; 25 μM) was 112 ± 5% of Control and the “Phosphatidylate Phosphohydrolase” value ([14]; 50 μM) was 99 ± 7% of Control. For the same molecule, the “Phosphatidylate Phosphohydrolase” value ([14]; 100 μM) was 90 ± 7% of Control, the “Mitochondrail Citrate Lyase” value ([15]; 25 μM) was 100 ± 7% of Control and the “Mitochondrail Citrate Lyase” value ([15]; 50 μM) was 98 ± 6% of Control. The “Mitochondrail Citrate Lyase” value ([15]; 100 μM) was 77 ± 5% of Control, the “Acyl CoA Cholesterol Acyl Transferase” value ([16]; 25 μM) was 128 ± 7% of Control and the “Acyl CoA Cholesterol Acyl Transferase” value ([16]; 50 μM) was 96 ± 5% of Control. For the same molecule, the “Acyl CoA Cholesterol Acyl Transferase” value ([16]; 100 μM) was 82 ± 5% of Control, the “Acetyl CoA Carboxylase” value (Acetyl CoA Carboxylase; 25 μM) was 102 ± 6% of Control and the “Acetyl CoA Carboxylase” value (Acetyl CoA Carboxylase; 50 μM) was 52 ± 4% of Control. For the same molecule, the “Acetyl CoA Carboxylase” value (Acetyl CoA Carboxylase; 100 μM) was 45 ± 4% of Control, the “ED50 Cytotoxicity, Human Osteo-Sarcoma” value (osteosarcoma TE418) was 6.65 µg/mL (≈ 28.5 µM) and the “Serum Cholesterol Day 7” value [17, 21] was 47 ± 5% of Control. The “Serum Cholesterol Day 14” value [17, 21] was 49 ± 4% of Control, the “Serum Triglycerides Day 7” value [17, 21] was 81 ± 7% of Control and the “Serum Triglycerides Day 14” value [17, 21] was 52 ± 5% of Control. For the same molecule, the “Percent Body Wt” value ([17]; Sprague Dawley male rats, 14 days at 8 mg/kd/day orally, 1% CMC control 131) was 125%, the “Daily food consumption reduced” value ([17]; rats, 8 mg/kg/day orally) was 14% and the “rat serum cholesterol levels lowered” value ([17]; rats, 8 mg/kg/day orally, after 14 days) was “greater than 40%”. The “rat serum triglyceride levels reduced” value ([17]; rats, 8 mg/kg/day orally, day 14) was 48%, the “reduction of the total body weight increase” value ([17]; rats, 8 mg/kg/day orally, over 14 days) was 6% and the “% of Control, anti-inflammatory (paw weight increase)” value [18] was 67 % of Control. For the same molecule, the “ED50 Cytotoxicity, L1210 Lymphoid Leukemia” value [19] was 2.62 µg/mL (≈ 11.2 µM) and the “T/C%, in vivo P388 lymphocytic screen” value [20] was 149%.
